Measured values taken from ChEMBL document CHEMBL1150386 (J Med Chem, 2008).

Amino acid sequences for entries named in this document (tags omitted). Residues count along the entry.
UniProt P22303, 32-614 limits assumed: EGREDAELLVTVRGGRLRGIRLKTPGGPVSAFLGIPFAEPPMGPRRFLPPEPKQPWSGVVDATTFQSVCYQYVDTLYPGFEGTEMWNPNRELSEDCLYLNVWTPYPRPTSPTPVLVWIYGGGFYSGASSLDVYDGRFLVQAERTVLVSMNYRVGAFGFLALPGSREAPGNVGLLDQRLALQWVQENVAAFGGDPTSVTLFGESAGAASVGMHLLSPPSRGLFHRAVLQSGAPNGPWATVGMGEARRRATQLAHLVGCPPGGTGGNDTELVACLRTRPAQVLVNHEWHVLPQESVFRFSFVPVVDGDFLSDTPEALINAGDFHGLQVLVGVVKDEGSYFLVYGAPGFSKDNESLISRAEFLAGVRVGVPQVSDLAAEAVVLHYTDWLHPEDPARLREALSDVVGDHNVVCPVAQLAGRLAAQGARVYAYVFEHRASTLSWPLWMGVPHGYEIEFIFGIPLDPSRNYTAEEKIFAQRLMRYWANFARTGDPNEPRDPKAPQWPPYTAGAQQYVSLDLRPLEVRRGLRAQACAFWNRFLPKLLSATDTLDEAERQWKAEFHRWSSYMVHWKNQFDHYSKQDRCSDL
UniProt P06276, 29-602 limits assumed: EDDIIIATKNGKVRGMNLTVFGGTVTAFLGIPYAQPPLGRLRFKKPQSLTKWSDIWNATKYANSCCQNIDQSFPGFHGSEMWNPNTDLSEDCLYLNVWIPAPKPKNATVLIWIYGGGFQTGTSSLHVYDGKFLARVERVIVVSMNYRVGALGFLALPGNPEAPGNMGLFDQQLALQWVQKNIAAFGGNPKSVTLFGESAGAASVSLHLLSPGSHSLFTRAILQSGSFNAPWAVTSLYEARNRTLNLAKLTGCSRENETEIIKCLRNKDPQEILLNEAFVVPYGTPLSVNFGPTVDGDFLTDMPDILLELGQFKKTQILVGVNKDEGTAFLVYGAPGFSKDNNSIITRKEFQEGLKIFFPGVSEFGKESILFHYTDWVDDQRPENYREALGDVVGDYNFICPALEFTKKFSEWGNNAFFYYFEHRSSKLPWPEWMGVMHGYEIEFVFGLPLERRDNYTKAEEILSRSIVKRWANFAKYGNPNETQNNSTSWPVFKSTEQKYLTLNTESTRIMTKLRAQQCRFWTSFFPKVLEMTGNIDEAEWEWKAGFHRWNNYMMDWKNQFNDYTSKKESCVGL
UniProt P04058, 22-564 limits assumed: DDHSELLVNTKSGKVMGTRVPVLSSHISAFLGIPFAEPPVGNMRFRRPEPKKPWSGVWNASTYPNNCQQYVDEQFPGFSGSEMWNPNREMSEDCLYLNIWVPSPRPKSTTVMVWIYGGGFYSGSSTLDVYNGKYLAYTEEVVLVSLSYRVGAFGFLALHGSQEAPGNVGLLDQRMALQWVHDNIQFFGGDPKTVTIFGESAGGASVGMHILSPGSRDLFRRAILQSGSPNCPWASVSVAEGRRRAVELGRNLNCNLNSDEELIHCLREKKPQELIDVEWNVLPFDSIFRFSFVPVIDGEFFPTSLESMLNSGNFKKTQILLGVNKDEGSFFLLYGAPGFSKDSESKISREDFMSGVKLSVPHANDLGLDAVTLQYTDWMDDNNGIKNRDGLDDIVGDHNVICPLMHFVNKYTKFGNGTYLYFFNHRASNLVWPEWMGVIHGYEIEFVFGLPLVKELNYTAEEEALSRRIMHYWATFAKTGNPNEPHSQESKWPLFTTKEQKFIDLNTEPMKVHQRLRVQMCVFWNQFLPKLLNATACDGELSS
UniProt P21836, 32-614 limits assumed: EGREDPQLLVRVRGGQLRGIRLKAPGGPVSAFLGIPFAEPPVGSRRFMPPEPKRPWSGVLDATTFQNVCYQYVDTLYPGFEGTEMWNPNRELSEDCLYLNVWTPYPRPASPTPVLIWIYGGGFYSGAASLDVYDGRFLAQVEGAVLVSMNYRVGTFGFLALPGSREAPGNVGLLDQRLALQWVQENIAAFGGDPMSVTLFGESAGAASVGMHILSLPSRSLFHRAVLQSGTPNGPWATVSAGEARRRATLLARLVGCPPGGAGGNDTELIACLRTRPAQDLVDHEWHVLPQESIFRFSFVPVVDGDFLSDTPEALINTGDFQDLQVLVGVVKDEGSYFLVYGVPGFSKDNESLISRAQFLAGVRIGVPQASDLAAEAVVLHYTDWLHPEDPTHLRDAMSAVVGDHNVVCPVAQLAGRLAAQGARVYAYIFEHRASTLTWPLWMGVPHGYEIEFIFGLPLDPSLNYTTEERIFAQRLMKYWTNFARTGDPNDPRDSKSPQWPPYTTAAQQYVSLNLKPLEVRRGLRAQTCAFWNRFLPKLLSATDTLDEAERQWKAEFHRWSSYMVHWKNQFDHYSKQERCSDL

Key:
[1] = target: T1, Acetylcholinesterase (Homo sapiens, UniProt P22303); assay: Inhibition of human recombinant AChE
[2] = target: Cholinesterase (Homo sapiens, UniProt P06276)
[3] = target: Acetylcholinesterase (Torpedo californica, UniProt P04058)
[4] = target: T1, Acetylcholinesterase
[5] = target: Acetylcholinesterase (Mus musculus, UniProt P21836); assay: Inhibition of mouse AChE

`Cc1cc(CCNc2c3c(nc4ccccc24)CCCC3)cc(CCNc2c3c(nc4ccccc24)CCCC3)c1` was tested, and the Ki [1] was 7.45 nM and the Ki [2] was 5.04 nM.
Molecule `c1ccc2c(NCCCCCCCCSc3c4c(nc5ccccc35)CCCC4)c3c(nc2c1)CCCC3` has a Ki [1] of 27.9 nM and a Ki [2] of 1.65 nM.
Work on `C=CCN(CCCCNc1c2c(nc3ccccc13)CCCC2)CCCNc1c2c(nc3ccccc13)CCCC2` yielded a Ki [1] of 0.0847 nM and a Ki [2] of 4.19 nM.
In the case of `CN(CCCCSc1c2c(nc3ccccc13)CCCC2)CCCNc1c2c(nc3ccccc13)CCCC2`, the Ki [1] is reported as 3.99 nM and the Ki [2] is reported as 8.59 nM.
For `CC[N+](CC)(CC)CCOc1cccc(OCC[N+](CC)(CC)CC)c1OCC[N+](CC)(CC)CC`, the Ki [3] was 15000 nM and the Ki [4] was 37000 nM.
For `c1ccc2c(NCCCN3CCN(CCCNc4c5c(nc6ccccc46)CCCC5)CC3)c3c(nc2c1)CCCC3`, the Ki [1] was 0.136 nM and the Ki [2] was 3.22 nM.
For `C[N+](C)(C)c1cccc(C(=O)C(F)(F)F)c1`, the Ki [3] was 0.015 nM.
In the case of `CCN(CCCCNc1c2c(nc3ccccc13)CCCC2)CCCNc1c2c(nc3ccccc13)CCCC2`, the Ki [1] is reported as 0.162 nM and the Ki [2] is reported as 0.435 nM.
Work on `c1ccc2c(NCCc3cocc3CCNc3c4c(nc5ccccc35)CCCC4)c3c(nc2c1)CCCC3` yielded a Ki [1] of 13.3 nM and a Ki [2] of 7.29 nM.
Molecule `CCOP(=O)(O)N(c1ccc(SC)c(C)c1)C(C)C` has a Ki [4] of 0.2 ×10² /M/min.
With `C[N+](C)(C)CCCCCCCCCC[n+]1c(-c2ccccc2)cc(N)c2ccc3ccc(N)cc3c21` the Ki [3] was 21.3 nM.
With `CN(CCCCNc1c2c(nc3ccccc13)CCCC2)CCCNc1c2c(nc3ccccc13)CCCC2` the Ki [1] was 0.0118 nM and the Ki [2] was 0.819 nM.
`c1cc(CCNc2c3c(nc4ccccc24)CCCC3)nc(CCNc2c3c(nc4ccccc24)CCCC3)c1` showed a Ki [1] of 0.768 nM and a Ki [2] of 1.87 nM.
`OCCN(CCCCNc1c2c(nc3ccccc13)CCCC2)CCCNc1c2c(nc3ccccc13)CCCC2` gave a Ki [1] of 0.119 nM and a Ki [2] of 1.19 nM.
`CC(=O)N(CCCCNc1c2c(nc3ccccc13)CCCC2)CCCSc1c2c(nc3ccccc13)CCCC2` was tested, and the Ki [2] was 0.27 nM.
Molecule `c1ccc2c(NCCc3ccc(CCNc4c5c(nc6ccccc46)CCCC5)cc3)c3c(nc2c1)CCCC3` has a Ki [1] of 1.63 nM and a Ki [2] of 13.9 nM.
For `c1cc(CCNc2c3c(nc4ccccc24)CCCC3)cc(CCNc2c3c(nc4ccccc24)CCCC3)c1`, the Ki [1] was 1.72 nM and the Ki [2] was 0.924 nM.
Molecule `c1ccc2c(NCCCCNCCCSc3c4c(nc5ccccc35)CCCC4)c3c(nc2c1)CCCC3` has a Ki [1] of 2.67 nM and a Ki [2] of 0.779 nM.
For `CN(CCCNc1c2c(nc3ccccc13)CCCC2)CCCNc1c2c(nc3ccccc13)CCCC2`, the Ki [1] was 0.54 nM and the Ki [2] was 12.1 nM.
`CC(=O)N(CCCCNc1c2c(nc3ccccc13)CCCC2)CCCNc1c2c(nc3ccccc13)CCCC2` was tested, and the Ki [1] was 0.223 nM and the Ki [2] was 0.725 nM.
Work on `CC(=O)N(CCCCSc1c2c(nc3ccccc13)CCCC2)CCCNc1c2c(nc3ccccc13)CCCC2` yielded a Ki [1] of 5.15 nM and a Ki [2] of 0.74 nM.
In the case of `Nc1ccc2c(c1)c(-c1ccccc1)[n+](CCCCCCc1cn(CCNc3c4c(nc5ccccc35)CCCC4)nn1)c1cc(N)ccc21`, the Ki [3] is reported as 0.72 nM.
For `CC(=O)N(CCCNc1c2c(nc3ccccc13)CCCC2)CCCSc1c2c(nc3ccccc13)CCCC2`, the Ki [1] was 13.4 nM and the Ki [2] was 3.13 nM.
For `O/N=C\c1cccc[n+]1CCCCCCC[n+]1ccccc1/C=N/O`, the Ki [5] was 1300 nM.
For `CCC1=CC2Cc3nc4cc(Cl)ccc4c(N)c3[C@@H](C1)C2` [HUPRINE X], the Ki [3] was 0.13 nM.
